The subject of the experiment is GA1224 gastric adenocarcinoma PDTX (FGFR2 amplification). Particulars: all treatment groups.

Take `COc1cc(CCc2cc(-c3nc4ccc(N5CCN(C)CC5)cc4[nH]3)n[nH]2)cc(OC)c1` [CPL304110, 2-{5-[2-(3,5-Methoxyphenyl)ethyl]-1H-pyrazol-3-yl}-5-(4-methylpiperazine-1-yl)-1H-benzo[d]imidazole]: the “tumor regrowth during 7-day treatment-free period, GA1224” value is on record as “no tumor regrowth was observed”.

The values above are taken from article PMC10811212 (Frontiers in Oncology, 2024).
